Source: patent US9120797B2, “Process for preparing spirocyclic cyclohexane compounds, compositions containing such compounds and method of using such compounds” (dated 2015)

Sequences of proteins named here, by UniProt entry; tags and fusion partners are left off. A change or cut given only in a name is not applied to a line headed by its entry.
UniProt P35372, whole entry, looked up: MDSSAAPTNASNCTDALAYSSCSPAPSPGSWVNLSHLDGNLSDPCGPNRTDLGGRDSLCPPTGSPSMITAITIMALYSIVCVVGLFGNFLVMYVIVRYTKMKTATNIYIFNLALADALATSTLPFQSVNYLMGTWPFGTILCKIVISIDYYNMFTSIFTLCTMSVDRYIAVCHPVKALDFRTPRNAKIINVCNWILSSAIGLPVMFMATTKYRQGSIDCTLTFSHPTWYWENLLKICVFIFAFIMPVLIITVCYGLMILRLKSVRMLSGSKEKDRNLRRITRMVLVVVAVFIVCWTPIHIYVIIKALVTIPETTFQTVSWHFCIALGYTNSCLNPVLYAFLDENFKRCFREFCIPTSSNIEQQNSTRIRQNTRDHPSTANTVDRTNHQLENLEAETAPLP
UniProt P41146: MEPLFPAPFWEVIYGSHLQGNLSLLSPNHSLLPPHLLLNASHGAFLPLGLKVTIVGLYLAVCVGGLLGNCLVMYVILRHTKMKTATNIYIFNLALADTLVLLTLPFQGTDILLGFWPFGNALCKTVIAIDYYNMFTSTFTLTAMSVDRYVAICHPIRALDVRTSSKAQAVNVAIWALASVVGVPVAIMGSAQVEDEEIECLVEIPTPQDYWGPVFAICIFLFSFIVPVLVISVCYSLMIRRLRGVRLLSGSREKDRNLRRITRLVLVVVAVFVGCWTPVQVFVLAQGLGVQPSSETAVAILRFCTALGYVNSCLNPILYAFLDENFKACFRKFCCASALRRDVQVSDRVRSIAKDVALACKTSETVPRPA

Experiments:
mice [1] = assay: Tail flick test in mice; conditions: for Tail flick (mouse, i.v.) % inhibition (dose [mg/kg]): % of maximum possible antinociceptive effect
human μ-opiate receptor = human μ-opiate receptor (Homo sapiens (Human), UniProt P35372); conditions: 1 μmole/l test substance
mice [2] = assay: Phenylquinone-induced writhing test in mice
ORL1 receptor = ORL1 receptor (Homo sapiens (Human), UniProt P41146); conditions: c=1 μM test substance

SMILES | Tail flick (mouse, i.v.) ED50 (mice [1]) [mg/kg] | μ % inhibition [1 μM] (human μ-opiate receptor) [%] | other results
CN(C)C1(c2cccc(F)c2)CCC2(CC1)OCCc1c2[nH]c2ccccc12 (stereo not drawn) | 0.018 |  | 
CN(C)C1(c2ccccc2)CCC2(CC1)OCCc1c2oc2ccccc12 (stereo not drawn) |  | 80 | Writhing (mouse, i.v.) % inhibition (dose [mg/kg]) (mice [2]; dose 10 mg/kg): 89% (10)
CN(C)C1(c2cccc(F)c2)CCC2(CC1)SCCc1c2[nH]c2ccccc12 (stereo not drawn) |  | 100 | ORL1 % inhibition [1 μM] (ORL1 receptor): 55%
CNC1(c2ccccc2)CCC2(CC1)OCCc1c2[nH]c2ccccc12 (stereo not drawn) | 0.042 |  | 
CC(=O)N1CCc2c([nH]c3cc(F)ccc23)C12CCC(c1ccccc1)(N(C)C)CC2 (stereo not drawn) |  |  | Tail flick (mouse, i.v.) % inhibition (dose [mg/kg]) (mice [1]; dose 0.1 mg/kg): 100% (0.1)
CN(C)C1(c2ccc(F)cc2)CCC2(CC1)OCCc1c2[nH]c2ccccc12 (stereo not drawn) |  |  | Tail flick (mouse, i.v.) % inhibition (dose [mg/kg]) (mice [1]; dose 0.1 mg/kg): 100% (0.1)
CN(C)C1(c2ccccc2)CCC2(CC1)NCCc1c2oc2ccccc12 (stereo not drawn) |  | 86 | ORL1 % inhibition [1 μM] (ORL1 receptor): 75%
CC(=O)N1CCc2c([nH]c3ccc(C)cc23)C12CCC(c1ccccc1)(N(C)C)CC2 (stereo not drawn) |  | 99 | ORL1 % inhibition [1 μM] (ORL1 receptor): 58%
CN(C)C1(c2ccccc2)CCC2(CC1)OCCc1c2[nH]c2ccc(O)cc12 (stereo not drawn) | 0.013 |  | 
CN(C)C1(c2ccccc2)CCC2(CC1)OCCc1c2[nH]c2ccccc12 (single isomer, unassigned) | 0.0035 |  | Tail flick ED50 (i.p.) (mice [1]; mouse, i.p.): 0.0182 (i.p.) mg/kg
Cc1ccc2[nH]c3c(c2c1)CC(C)OC31CCC(c2ccccc2)(N(C)C)CC1 (stereo not drawn) |  | 90 | ORL1 % inhibition [1 μM] (ORL1 receptor): 56%; Tail flick (mouse, i.v.) % inhibition (dose [mg/kg]) (mice [1]; dose 1 mg/kg): 100% (1)
CN(C)C1(c2ccccc2)CCC2(CC1)OCCc1c2sc2ccccc12 (stereo not drawn) |  | 53 | 
CN(C)C1(c2ccc(F)cc2)CCC2(CC1)SCCc1c2[nH]c2ccccc12 (stereo not drawn) |  | 90 | 
Cc1ccc2[nH]c3c(c2c1)CCOC31CCC(c2ccccc2)(N(C)C)CC1 (stereo not drawn) | 0.039 |  | 
CNC1(c2ccccc2)CCC2(CC1)OCCc1c2[nH]c2ccc(F)cc12 (stereo not drawn) | 0.22 |  | 
CN(C)C1(c2ccc(F)cc2)CCC2(CC1)OCCc1c2sc2ccccc12 (stereo not drawn) |  | 76 | 
CN(C)C1(c2ccccc2)CCC2(CC1)OC1CCCCC1c1c2[nH]c2ccccc12 (stereo not drawn) |  | 96 | ORL1 % inhibition [1 μM] (ORL1 receptor): 91%
CC1Cc2c(n(C)c3ccccc23)C2(CCC(c3ccccc3)(N(C)C)CC2)O1 (stereo not drawn) |  | 75 | 
COc1ccc2[nH]c3c(c2c1)CCOC31CCC(c2ccccc2)(N(C)C)CC1 (stereo not drawn) | 0.02 |  | Writhing (mouse, i.v.) ED50 (mice [2]): 0.0033 mg/kg
CC1Cc2c(n(-c3ccccc3)c3ccccc23)C2(CCC(c3ccccc3)(N(C)C)CC2)O1 (stereo not drawn) |  | 43 | 
CN(C)C1(c2ccccc2)CCC2(CC1)NC(CO)Cc1c2[nH]c2ccccc12 (stereo not drawn) |  |  | ORL1 % inhibition [1 μM] (ORL1 receptor): 99%
